Measurements taken from patent US20230027247A1, “SMALL MOLECULE COMPOUNDS FOR AMPLIFYING HEMATOPOIETIC STEM CELLS, AND COMBINATION THEREOF” (EDIGENE (GUANGZHOU) INC., priority 2019, published 2023).

Columns and labels:
[1] = system: umbilical cord blood-derived CD34+ cells; settings: for maintaining the stemness of HSCs (comparison with SAHA): FIG. 8, inhibitors of Table 5 alone or combined with SAHA
[2] = system: umbilical cord blood-derived CD34+ cells; assay: In vitro expansion and stemness maintenance, 8 days of treatment (flow cytometry and cell counting); type: cell-based, human; settings: for proportion of CD34+ cells: FIG. 18, SR1 5 μM, UM171 350 nM, Dasatinib 50 nM
Method: 20 μL of cell suspension is respectively taken on day 2, day 4, day 6 and day 8 of the culture to count in a cell counter (Nexcelom, model: Cellometer K2), calculating the final absolute number of CD34+ cells and LT cells on day 8 (absolute number of cells=cell proportion*total number of cells), the results are shown in FIG. 18.

**Q.** Which results are given for `CCCC(=O)[O-].[Na+]` [Butyrate, Sodium butyrate]?
**A.** maintaining the stemness of HSCs (comparison with SAHA alone) ([1]; Butyrate alone, results obtained in Example 4): not as good as that of SAHA alone; toxicity to cells ([1]; FIG. 9, high concentration of Butyrate): highly toxic to cells

**Q.** `Cc1nc(Nc2ncc(C(=O)Nc3c(C)cccc3Cl)s2)cc(N2CCN(CCO)CC2)n1` [Dasatinib] was tested. Which “maintaining stemness, times more effective than SR1” value ([2]; FIG. 18, Dasatinib 50 nM vs SR1 5 μM) did it give?
**A.** The value was “about 1.2 times”.

**Q.** And the “maintaining stemness, times more effective than UM171” value ([2]; FIG. 18, Dasatinib 50 nM vs UM171 350 nM)?
**A.** Its value is “about 2.8 times”.

**Q.** What about the “proportion of CD34+ cells” value [2] of the same molecule?
**A.** Its value is “about 40%”.

**Q.** With `Cn1cc(C2=C(c3cn(C4CCN(Cc5ccccn5)CC4)c4ccccc34)C(=O)NC2=O)c2ccccc21` [Enzastaurin] as the molecule, how does the “proportion of LT-HSCs, times higher than that of other inhibitors (other than SAHA)” value ([1]; FIG. 5, Enzastaurin used at low concentrations, Table 7) read?
**A.** Its value is 3-10 times.

**Q.** How did the “maintaining the stemness of HSCs (comparison with SAHA)” value [1] turn out when `CCC(=O)O[C@]1(C(=O)SCF)[C@H](C)C[C@H]2[C@@H]3C[C@H](F)C4=CC(=O)C=C[C@]4(C)[C@@]3(F)[C@@H](O)C[C@@]21C` [FLU, Fluticasone propionate] was run?
**A.** Its value is “far less effective than SAHA”.

**Q.** How did the “maintaining the stemness of HSCs (comparison with SAHA)” value [1] turn out when `O=C(Nc1ccccc1)c1cc([N+](=O)[O-])ccc1Cl` [GW9662] was run?
**A.** The value was “far less effective than SAHA”.

**Q.** `Cc1cc(NC(=O)c2cccc(NC(=O)/C=C/CN(C)C)c2)ccc1Nc1nccc(-c2cccnc2)n1` [JNK-IN-8] was tested. Which “proportion of CD34+ cells” value ([1]; FIG. 5, Table 7) did it give?
**A.** The value was “about 90%”.

**Q.** For `O=C(NCc1cccc(O)c1)c1cc2cc(F)ccc2[nH]1` [KX1-004], which “maintaining the stemness of LT-HSCs (comparison with SAHA)” value ([1]; FIG. 17, Table 9) is on record?
**A.** The value was “not significantly different from that of SAHA”.

**Q.** `CCCCC[C@H](O)/C=C/[C@H]1[C@H](O)CC(=O)[C@@H]1C/C=C\CCCC(=O)O` [PGE2] was tested. Which “maintaining the stemness of HSCs (comparison with SAHA)” value [1] did it give?
**A.** Its value is “far less effective than SAHA”.

**Q.** Which “maintaining the proportion of CD34+ cells (comparison)” value ([1]; FIG. 2, SAHA 1 μM vs Mock, 0.01% DMSO) does the source give for `O=C(CCCCCCC(=O)Nc1ccccc1)NO` [SAHA] here?
**A.** The value was “slightly better than the control group”.

**Q.** What about the “increasing the proportion of LT-HSCs, times more effective than other inhibitors” value ([1]; FIG. 2, vs other inhibitors in Table 4, 6-7 days) of the same molecule?
**A.** The value was 2-20 times.

**Q.** What about the “maintaining stemness of HSCs, times more effective than the reported small molecules” value ([1]; FIG. 3, SAHA 1 μM vs UM171, PGE2, SR1, GW9662 and FLU (Table 5)) of the same molecule?
**A.** Its value is 2-20 times.

**Q.** What about the “maintaining the proportion of CD34+ cells (comparison)” value ([1]; FIG. 4, vs other inhibitors in Table 6) of the same molecule?
**A.** Its value is “better than other inhibitors”.

**Q.** What about the “maintaining the stemness of HSCs, times more effective than other inhibitors” value ([1]; FIG. 5, SAHA 1 μM vs other inhibitors in Table 7) of the same molecule?
**A.** The value was 1-12 times.

**Q.** And the “maintaining the proportion of CD34+ cells (comparison)” value ([1]; FIG. 5, Table 7)?
**A.** Its value is “slightly better than other inhibitors except JNK-IN-8”.

**Q.** What about the “maintaining the proportion of CD34+ cells (comparison)” value ([1]; FIG. 6, Table 8) of the same molecule?
**A.** Its value is “superior to other small molecules”.

**Q.** What about the “maintaining the stemness of LT-HSCs, times more effective than other small molecules (except VPA)” value ([1]; FIG. 6, Table 8) of the same molecule?
**A.** The value was 15 times.

**Q.** What about the “proportion of CD34+ cells” value ([1]; FIG. 15) of the same molecule?
**A.** The value was “about 80%”.

**Q.** What about the “proportion of CD34+ cells” value ([1]; FIG. 17, Table 9) of the same molecule?
**A.** The value was “about 80%”.

**Q.** For `CC(C)n1cnc2c(NCCc3ccc(O)cc3)nc(-c3csc4ccccc34)nc21` [SR1, StemRegenin1], which “maintaining the stemness of HSCs (comparison with SAHA)” value [1] is on record?
**A.** Its value is “far less effective than SAHA”.

**Q.** And the “proportion of CD34+ cells” value [2]?
**A.** Its value is “about 65%”.

**Q.** What does the source list for `Cn1nnc(-c2ccc3c(c2)[nH]c2nc(Cc4ccccc4)nc(NC4CCC(N)CC4)c23)n1` (centres unmarked) [UM171]?
**A.** maintaining the stemness of HSCs (comparison with SAHA) [1]: far less effective than SAHA; proportion of CD34+ cells [2]: about 40%

**Q.** How did the “maintaining the proportion of CD34+ cells (comparison with SAHA)” value ([1]; FIG. 17, Table 9) turn out when `Cc1nc(Nc2ncc(C(=O)Nc3cc(NC(=O)c4cccc(C(F)(F)F)c4)ccc3C)s2)cc(N2CCN(CCO)CC2)n1` [UM-164] was run?
**A.** Its value is “no significant difference”.

**Q.** What about the “proportion of CD34+ cells” value ([1]; FIG. 17, Table 9) of the same molecule?
**A.** Its value is “about 80%”.

**Q.** What about the “maintaining the stemness of LT-HSCs, times more effective than SAHA” value ([1]; FIG. 17, Table 9, SAHA 1 μM) of the same molecule?
**A.** Its value is 5 times.

**Q.** With `CCCC(CCC)C(=O)O` [VPA, Valproic acid] as the molecule, how does the “maintaining the proportion of CD34+ cells (comparison)” value ([1]; FIG. 6, Table 8) read?
**A.** The value was “superior to other small molecules”.

**Q.** What about the “maintaining the stemness of LT-HSCs, higher than SAHA” value ([1]; FIG. 6, vs SAHA) of the same molecule?
**A.** Its value is “about 1 time”.

**Q.** And the “maintaining the stemness of LT-HSCs, times higher than other small molecules” value ([1]; FIG. 6, vs other small molecules in Table 8)?
**A.** The value was “about 30 times”.

**Q.** What about the “proportion of CD34+ cells” value ([1]; FIG. 15) of the same molecule?
**A.** The value was “about 80%”.

Read-outs that look alike come from different tables or passages of the source.
